{"source": "patent US9695228B2", "about": "“EGFR and c-Met fibronectin type III domain binding molecules” (Janssen Biotech, Inc., priority 2012, dated 2017)", "system": "H292-HGF human lung cancer xenograft", "type": "in vivo", "note": "Several values for one entry are separate records, joined by “and”; a condition that tells them apart may be missing. Identical values can stand only once. Like-named read-outs stand apart in the source and are kept apart here."}
{"substance": "Cetuximab: anti-EGFR antibody", "values": [{"measurement": "T-C at 1000 mm^3 (tumor growth delay)", "setting": "compared with the vehicle group", "value": 17, "unit": "days"}, {"measurement": "Tumor volume", "setting": "day 7 (start of treatment), mean ± SEM, doses as in column head", "value": "139 ± 10", "unit": "mm^3"}, {"measurement": "Tumor volume", "setting": "day 9, mean ± SEM", "value": "168 ± 13", "unit": "mm^3"}, {"measurement": "Tumor volume", "setting": "day 13, mean ± SEM", "value": "212 ± 20", "unit": "mm^3"}, {"measurement": "Tumor volume", "setting": "day 16, mean ± SEM", "value": "252 ± 28", "unit": "mm^3"}, {"measurement": "Tumor volume", "setting": "day 20, mean ± SEM", "value": "371 ± 48", "unit": "mm^3"}, {"measurement": "T/C", "setting": "day 23", "value": 28, "unit": "%"}, {"measurement": "Tumor volume", "setting": "day 23, mean ± SEM", "value": "485 ± 61", "unit": "mm^3"}, {"measurement": "Tumor Size at day 23", "setting": "day 23 after tumor inoculation, doses as printed with treatment", "value": "485 mm^3 and 485 ± 61 mm^3"}, {"measurement": "Tumor volume", "setting": "day 27, mean ± SEM", "value": "640 ± 82", "unit": "mm^3"}, {"measurement": "Tumor volume", "setting": "day 30, mean ± SEM", "value": "869 ± 100", "unit": "mm^3"}, {"measurement": "antitumor activity (in words)", "setting": "doses as in Table 14", "value": "significant antitumor activities"}, {"measurement": "tolerability / body weight loss (in words)", "setting": "doses as in Table 14", "value": "well tolerated"}]}
